Sampled rows, rich in hits. Any-hit rate of the full collection: about 0.46%.
HCMV UL50-53 inh = inhibitors of HCMV UL50-UL53 nuclear egress complex interaction; HTRF UL50-UL53 interaction, normalized percent inhibition; inhibition, % (concentration not given with the values); hit rate 0.15% among 190,000; AID 1918969; in the data active = inhibition above about 27%, passing the limit was not always enough
GIV Gai3 FP = inhibitors of GIV GBA-motif binding to rat Galpha-i3; P08753; Galpha-i3/FITC-GIV peptide fluorescence polarization, 90 min; stronger effect = lower value; scaled: aluminum fluoride 0%, vehicle 100%; percent of control (FP), % (no concentration beside the values); actives 0.42% (n = 210,000); AID 1224905;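 active means replicate mean at 85% of control or lower, very high polarization wells dropped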;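 further: wells of about 15 µL received 100 nL stock; the first replicate is given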
GIV Gai FP conf = confirmation of inhibitors of GIV binding to rat Galpha-i3. shares compounds with GIV Gai3 FP. FITC-GIV peptide binding to Galphai3, fluorescence polarization; stronger effect = lower value. fluorescence polarization, mP at 100 µM. hit rate 38% among 580;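 active = inhibition score of 15 or more, meaning 100 minus mean polarization as percent of control over three replicates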
GIV-Gai AS conf = confirmation of inhibitors of GIV binding to human Galpha-i3; hit rate 39% among 580; AlphaScreen Galphai3-GIV binding, purified proteins, 90 min; stronger effect = lower value; shares compounds with GIV Gai3 FP; AlphaScreen counts at 100 µM;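 active = inhibition score at or above a set limit, where the score is 100 minus the three-replicate mean percent of control signal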
* marks the source's active call; other numbers are inactive results; . = not tested or not shown.

Key to letters: A = HCMV UL50-53 inh; B = GIV Gai3 FP; C = GIV Gai FP conf; D = GIV-Gai AS conf
> CCOC(=O)c1c(-c2ccc(Br)cc2)csc1/N=C/c1c(C)[nH]n(-c2ccccc2)c1=O
  A = -10; B = 75*; C = 68; D = 41072
> CCOC(=O)c1c(-c2ccc(Br)cc2)csc1/N=C/C1C(=O)NC(=S)NC1=O
  A = .; B = 90; C = .; D = .
> Cc1cc(N2CCOCC2)n2nc(C(F)(F)F)c(-c3ccc(Cl)cc3)c2n1
  A = 2; B = 88; C = 66; D = 42837
> Cc1ccc(-c2c(C(F)(F)F)nn3c(-n4nc(C)cc4C)cc(C)nc23)cc1
  A = 0; B = 93; C = 65; D = 45290
> Cc1ccc(-c2c(C(F)(F)F)nn3c(N4CCN(C)CC4)cc(C)nc23)cc1
  A = -17; B = 97; C = .; D = .
> Cc1cc(N2CCOCC2)n2nc(C)c(-c3ccc(F)cc3)c2n1
  A = -24; B = 110; C = .; D = .
> CCOC(=O)c1cc(NC(=O)c2ccc3c(c2)OCO3)cc(C(=O)OCC)c1
  A = -4; B = 108; C = .; D = .
> O=C1c2cc(S(=O)(=O)N3CCCCC3)cc([N+](=O)[O-])c2-c2c1cc(S(=O)(=O)N1CCCCC1)cc2[N+](=O)[O-]
  A = .; B = 109; C = .; D = .
> O=[N+]([O-])c1cc(S(=O)(=O)O)cc2c1-c1c(cc(S(=O)(=O)O)cc1[N+](=O)[O-])C2
  A = .; B = 86; C = 62; D = 17742*
> O=C(NC1CCCC1)c1nc(-c2ccc(S(=O)(=O)N3CCCCC3)cc2)no1
  A = .; B = 110; C = .; D = .
> O=C1C=CC(=O)C(c2ccc(C(=O)O)cc2)=C1
  A = -8; B = 70*; C = 55*; D = 2443*
> CC(C)c1ccc(C2=CC(=O)C=CC2=O)cc1
  A = -10; B = 107; C = .; D = .
> NC(=O)NC(=O)c1nc2nonc2[nH]c1=O
  A = 3; B = 44*; C = 42*; D = 23047
> O=c1[nH]c2nonc2nc1/C=C(\O)c1ccccc1
  A = -80; B = 101; C = .; D = .
> CCOC(=O)C1=C(O)/C(=C/c2cccc([N+](=O)[O-])c2)SC1=Nc1ccc([N+](=O)[O-])cc1
  A = .; B = 104; C = .; D = .
> CCC(CC)NS(=O)(=O)c1ccc(Br)cc1
  A = -1; B = 104; C = .; D = .
> O=C(CSc1nc2scc(-c3cccs3)c2c(=O)[nH]1)c1ccc[nH]1
  A = -14; B = .; C = .; D = .
> CCOC(=O)c1ccc(Nc2nc3ccccc3n3cnnc23)cc1
  A = 0; B = 103; C = .; D = .
> Cc1ccc(C(=O)O)cc1Nc1nc2ccccc2n2cnnc12
  A = -3; B = 76*; C = 43*; D = 18787*
> CC1(C)CC2(CC(C)(C)OC2=O)C(=O)O1
  A = .; B = 108; C = .; D = .
> O=C(Cn1c(=O)c2ccccc2n2c(=S)sc(-c3ccc(Br)cc3)c12)N1CCCC1
  A = -19; B = 94; C = .; D = .
> CCN(CC)C(=O)Cn1c(=O)c2ccccc2n2c(=S)sc(-c3ccccc3F)c12
  A = -41; B = 121; C = .; D = .
> O=C(Cn1c(=O)c2ccccc2n2c(=S)sc(-c3ccccc3)c12)NCC1CCCO1 (configuration not stated)
  A = -16; B = 78*; C = 72; D = 23082
> CCN(CC)C(=O)Cn1c(=O)c2ccccc2n2c(=S)sc(-c3ccc(Br)cc3)c12
  A = -29; B = 100; C = 94; D = 27284
> Cc1cc(C)n(Cc2ccc(C(=O)O)cc2)n1
  A = -14; B = .; C = .; D = .
> Cc1ccc(C)n1Cc1ccc(C(=O)O)cc1
  A = 70*; B = 33*; C = 48*; D = 3139*
> Cc1ccc(C)n1CCC(=O)O
  A = -1; B = 71*; C = 60; D = 3780*
> Cc1ccn(CCC(=O)O)n1
  A = -24; B = 103; C = .; D = .
> O=C1c2ccccc2-c2nc3nonc3nc21
  A = 36; B = 49*; C = 44*; D = 17911*
> O=C1c2ccccc2-c2n[nH]c(=S)nc21
  A = -170; B = 97; C = .; D = .
> Cc1c(Cl)c([N+](=O)[O-])nn1CC(=O)Nc1sc2c(c1C#N)CCC(C(C)(C)C)C2 (configuration not stated)
  A = .; B = 109; C = .; D = .
> O=C1/C(=C\c2cccnc2)SC(=S)N1C1CCS(=O)(=O)C1 (configuration not stated)
  A = -32; B = 89; C = 73; D = 36761
> O=C1/C(=C/c2cn(-c3ccccc3)nc2-c2cccs2)SC(=S)N1C1CCS(=O)(=O)C1 (configuration not stated)
  A = -18; B = 94; C = .; D = .
> O=C(O)CNC(=O)Cc1ccccc1
  A = -15; B = 104; C = .; D = .
> O=C(NC1(O)C(=O)c2ccccc2C1=O)c1ccc(C(F)(F)F)cc1
  A = 58*; B = 56*; C = 61; D = 32539
> Cc1ccc(C(=O)O)cc1NC1(c2ccccc2)C(=O)c2ccccc2C1=O
  A = .; B = 98; C = .; D = .
> O=C(NO)c1ccc(C(F)(F)F)cc1
  A = -10; B = .; C = .; D = .
> Cc1ccc(C(=O)NC2(O)C(=O)c3ccccc3C2=O)cc1C
  A = 59*; B = 57*; C = 45*; D = 46487
> O=C(NC1(O)C(=O)c2ccccc2C1=O)c1ccccn1
  A = 36; B = 74*; C = 68; D = 36588
> O=C(Cc1ccccc1)NC1(O)C(=O)c2ccccc2C1=O
  A = 50*; B = 61*; C = 52*; D = 45267
> O=C(NCCc1ccccc1)c1ccccn1
  A = -34; B = .; C = .; D = .

A second format for some results above:
Results follow in this order: HCMV UL50-53 inh, GIV Gai3 FP, GIV Gai FP conf, GIV-Gai AS conf
Cc1ccc(C)n1CCC(=O)O
→ -1, 71*, 60, 3780*
O=C(Cc1ccccc1)NC1(O)C(=O)c2ccccc2C1=O
→ 50*, 61*, 52*, 45267
Cc1c(Cl)c([N+](=O)[O-])nn1CC(=O)Nc1sc2c(c1C#N)CCC(C(C)(C)C)C2 (configuration not stated)
→ ., 109, ., .
